# From ChEMBL document CHEMBL6127053, “Discovery of orally bioavailable phosphonate prodrugs of potent ENPP1 inhibitors for cancer treatment” (Eur J Med Chem, 2024)
# Calls of active or inactive are those of the source. The calls are words filed in the database; no cut-off is given here.
# Target: T1, Ectonucleotide pyrophosphatase/phosphodiesterase family member 1 (Homo sapiens) (UniProt P22413)
# T1 sequence (whole entry): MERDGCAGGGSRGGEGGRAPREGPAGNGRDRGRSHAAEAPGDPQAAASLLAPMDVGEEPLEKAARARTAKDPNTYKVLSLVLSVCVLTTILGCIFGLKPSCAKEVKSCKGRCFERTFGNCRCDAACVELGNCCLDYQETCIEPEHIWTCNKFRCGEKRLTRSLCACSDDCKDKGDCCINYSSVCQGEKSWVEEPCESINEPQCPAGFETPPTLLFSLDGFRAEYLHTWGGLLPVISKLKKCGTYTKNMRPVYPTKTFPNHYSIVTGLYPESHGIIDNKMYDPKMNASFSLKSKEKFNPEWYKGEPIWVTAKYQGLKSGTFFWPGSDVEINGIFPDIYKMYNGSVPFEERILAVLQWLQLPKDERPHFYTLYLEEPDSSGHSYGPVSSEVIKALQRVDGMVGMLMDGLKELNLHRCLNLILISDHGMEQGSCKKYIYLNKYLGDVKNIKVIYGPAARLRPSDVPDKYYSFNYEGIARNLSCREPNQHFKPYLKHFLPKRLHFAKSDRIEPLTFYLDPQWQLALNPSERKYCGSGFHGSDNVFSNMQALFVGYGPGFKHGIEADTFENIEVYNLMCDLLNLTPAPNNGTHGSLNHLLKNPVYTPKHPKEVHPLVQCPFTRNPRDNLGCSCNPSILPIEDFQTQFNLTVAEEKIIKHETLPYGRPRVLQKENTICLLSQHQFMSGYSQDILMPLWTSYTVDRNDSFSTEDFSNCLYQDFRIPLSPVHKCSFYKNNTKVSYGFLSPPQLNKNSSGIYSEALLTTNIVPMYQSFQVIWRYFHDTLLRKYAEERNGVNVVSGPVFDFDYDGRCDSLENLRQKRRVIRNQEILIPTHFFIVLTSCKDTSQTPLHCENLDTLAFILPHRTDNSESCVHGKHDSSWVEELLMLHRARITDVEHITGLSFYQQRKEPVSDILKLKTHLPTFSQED
# Details: THP-1, dose 200.0 nM, time 20.0 hrs
smiles,measurement,value
COc1cccc2c(N3CCC(CCP(=O)(O)O)CC3)ncnc12,inhibition,Active
